The results in this text go back to ChEMBL document CHEMBL3886525, “Pyrazolo[3,4-c]pyridine compounds and methods of use” (2016).

By UniProt entry, the sequences of proteins in these tests, tags left out.
UniProt P11309, whole entry: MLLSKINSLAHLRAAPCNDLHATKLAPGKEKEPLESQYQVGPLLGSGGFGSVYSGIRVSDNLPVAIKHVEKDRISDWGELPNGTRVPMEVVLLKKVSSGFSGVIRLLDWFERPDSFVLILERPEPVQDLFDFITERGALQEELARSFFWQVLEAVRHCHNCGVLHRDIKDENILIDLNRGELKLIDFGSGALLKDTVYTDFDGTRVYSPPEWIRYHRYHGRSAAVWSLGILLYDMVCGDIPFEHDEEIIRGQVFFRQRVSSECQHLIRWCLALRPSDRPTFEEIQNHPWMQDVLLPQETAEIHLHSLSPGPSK

This assay concerns the target Serine/threonine-protein kinase pim-1 (Homo sapiens, UniProt P11309). In words: A fluorescent-labeled Pim-specific peptide substrate, was custom synthesized by American Peptide Company (Sunnyvale, Calif.). Reaction Buffer contained 10 mM HEPES, pH 7.2, 10 mM MgCl2, 0.01% Tween 20, 2 mM DTT.

Molecules are shown by their SMILES.

By Ki is commonly meant the equilibrium dissociation constant of an inhibitor or competing ligand from its target.

Compound `NC[C@H]1CCN(c2cccc(-c3n[nH]c4cnc(-c5cccnc5)cc34)n2)C1` returned a Ki of 0.085 nM.
